Biological target: human μ opiate receptor (Homo sapiens, UniProt P35372)
Test: [3H]-naloxone displacement, SPA, membranes of CHO-K1 cells
Details: 1 μM test substance; inhibition of specific binding of 1 nmol/l [3H]-naloxone

Protein sequences, listed by entry. Tags and fused reporters are not part of them.
UniProt P35372, whole entry, looked up: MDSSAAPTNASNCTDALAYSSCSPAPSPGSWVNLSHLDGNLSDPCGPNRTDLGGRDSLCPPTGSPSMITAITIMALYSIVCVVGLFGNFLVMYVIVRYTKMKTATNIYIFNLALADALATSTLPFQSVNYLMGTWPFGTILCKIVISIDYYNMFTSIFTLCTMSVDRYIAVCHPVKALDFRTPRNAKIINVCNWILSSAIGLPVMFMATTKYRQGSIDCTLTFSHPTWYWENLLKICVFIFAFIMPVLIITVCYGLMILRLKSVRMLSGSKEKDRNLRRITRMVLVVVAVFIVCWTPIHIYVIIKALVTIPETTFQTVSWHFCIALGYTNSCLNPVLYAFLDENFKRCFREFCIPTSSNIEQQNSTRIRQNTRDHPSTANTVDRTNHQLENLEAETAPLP

Compound	μ opioid receptor [1 μM] % inhibition
O=C(COCC1CCCN1S(=O)(=O)c1c(Cl)cc(Cl)cc1Cl)NC1CCC(c2ccccc2)(N2CCCC2)CC1 (centres unmarked) [Compound 146, N-(4-phenyl-4-(pyrrolidin-1-yl)cyclohexyl)-2-((1-(2,4,6-trichlorophenylsulfonyl)pyrrolidin-2-yl)methoxy)acetamide]	101%
CN(CCC1CCC(Cc2ccccc2)(N(C)C)CC1)C(=O)CC1CCCCN1S(=O)(=O)c1cccc(C(F)(F)F)c1 (centres unmarked) [Compound 95, N-(2-(4-benzyl-4-(dimethylamino)cyclohexyl)ethyl)-N-methyl-2-(1-(3-(trifluoromethyl)phenylsulfonyl)piperidin-2-yl)acetamide]	50%
COc1cc(C)c(S(=O)(=O)N2CCCCC2COCC(=O)N2CCC(CCc3ccccc3)(N(C)C)CC2)c(C)c1 (centres unmarked) [Compound 50, 1-(4-(dimethylamino)-4-phenethylpiperidin-1-yl)-2-((1-(4-methoxy-2,6-dimethylphenylsulfonyl)piperidin-2-yl)methoxy)ethanone]	20%
COc1cc(C)c(S(=O)(=O)N(C)CCOCC(=O)NC2CCC(c3ccccc3)(N3CCCCC3)CC2)c(C)c1 (centres unmarked) [Compound 11, 2-(2-(4-methoxy-N,2,6-trimethylphenylsulfonamido)ethoxy)-N-(4-phenyl-4-(piperidin-1-yl)cyclohexyl)acetamide]	43%
COc1cc(C)c(S(=O)(=O)N(C)CCOCC(=O)N(C)CCC2CCC(c3ccccc3)(N(C)C)CC2)c(C)c1 (centres unmarked) [Compound 72, N-(2-(4-(dimethylamino)-4-phenylcyclohexyl)ethyl)-2-(2-(4-methoxy-N,2,6-trimethylphenylsulfonamido)ethoxy)-N-methylacetamide]	96%
CN1CCN(C2(CCc3ccccc3)CCN(C(=O)CC(NS(=O)(=O)c3ccc4ccccc4c3)c3ccccc3)CC2)CC1 (centres unmarked) [Compound 55, N-(3-(4-(4-methylpiperazin-1-yl)-4-phenethylpiperidin-1-yl)-3-oxo-1-phenylpropyl)naphthalene-2-sulfonamide]	34%
Cc1cc(S(=O)(=O)N2CCCCC2CCC(=O)N(C)CCC2CCC(Cc3ccccc3)(N3CCCC3)CC2)c(C)cc1Cl (centres unmarked) [Compound 117, N-(2-(4-benzyl-4-(pyrrolidin-1-yl)cyclohexyl)ethyl)-3-(1-(4-chloro-2,5-dimethylphenylsulfonyl)piperidin-2-yl)-N-methylpropanamide]	55%
CN1CCN(C2(CCc3ccccc3)CCN(C(=O)CC3CCCCN3S(=O)(=O)c3cccc(C(F)(F)F)c3)CC2)CC1 (centres unmarked) [Compound 119, 1-(4-(4-methylpiperazin-1-yl)-4-phenethylpiperidin-1-yl)-2-(1-(3-(trifluoromethyl)phenylsulfonyl)piperidin-2-yl)ethanone]	59%
CN(CCC1CCC(CCc2ccccc2)(N(C)C)CC1)C(=O)COCC1CCc2ccccc2N1S(=O)(=O)c1ccc(Cl)c(Cl)c1 (centres unmarked) [Compound 101, 2-((1-(3,4-dichlorophenylsulfonyl)-1,2,3,4-tetrahydroquinolin-2-yl)methoxy)-N-(2-(4-(dimethylamino)-4-phenethylcyclohexyl)ethyl)-N-methylacetamide]	36%
COc1cc(C)c(S(=O)(=O)N2CCCC(OCC(=O)NC3CCC(c4ccccc4)(N4CCCC4)CC3)C2)c(C)c1 (centres unmarked) [Compound 176, 2-(1-(4-methoxy-2,6-dimethylphenylsulfonyl)piperidin-3-yloxy)-N-(4-phenyl-4-(pyrrolidin-1-yl)cyclohexyl)acetamide]	88%
COc1cc(C)c(S(=O)(=O)N2CCC(OCC(=O)NC3CCC(c4ccccc4)(N4CCCCC4)CC3)C2)c(C)c1 (centres unmarked) [Compound 27, 2-(1-(4-methoxy-2,6-dimethylphenylsulfonyl)pyrrolidin-3-yloxy)-N-(4-phenyl-4-(piperidin-1-yl)cyclohexyl)acetamide]	27%
COc1cc(C)c(S(=O)(=O)N2CCCCC2COCC(=O)N(C)CC2CCC(Cc3ccccc3)(N3CCCC3)CC2)c(C)c1 (centres unmarked) [Compound 78, N-((4-benzyl-4-(pyrrolidin-1-yl)cyclohexyl)methyl)-2-((1-(4-methoxy-2,6-dimethylphenylsulfonyl)piperidin-2-yl)methoxy)-N-methylacetamide]	15%
CN1CCN(C2(Cc3ccccc3)CCC(CN(C)C(=O)COC3CCCN(S(=O)(=O)c4c(Cl)cc(Cl)cc4Cl)C3)CC2)CC1 (centres unmarked) [Compound 175, N-((4-benzyl-4-(4-methylpiperazin-1-yl)cyclohexyl)methyl)-N-methyl-2-(1-(2,4,6-trichlorophenylsulfonyl)piperidin-3-yloxy)acetamide]	58%
COc1cc(C)c(S(=O)(=O)N2CCC(OCC(=O)NC3CCC(CCc4ccccc4)(N(C)C)CC3)C2)c(C)c1 (centres unmarked) [Compound 5, N-(4-(dimethylamino)-4-phenethylcyclohexyl)-2-(1-(4-methoxy-2,6-dimethylphenylsulfonyl)pyrrolidin-3-yloxy)acetamide]	41%
COc1cc(C)c(S(=O)(=O)N2CCCCC2COCC(=O)N2CCC(c3ccc(F)cc3)(N3CCN(C)CC3)CC2)c(C)c1 (centres unmarked) [Compound 70, 1-(4-(4-fluorophenyl)-4-(4-methylpiperazin-1-yl)piperidin-1-yl)-2-((1-(4-methoxy-2,6-dimethylphenylsulfonyl)piperidin-2-yl)methoxy)ethanone]	13%
COc1cc(C)c(S(=O)(=O)N(C)CCOCC(=O)N(C)CCCC2CCC(CCc3ccccc3)(N3CCCC3)CC2)c(C)c1 (centres unmarked) [Compound 91, 2-(2-(4-methoxy-N,2,6-trimethylphenylsulfonamido)ethoxy)-N-methyl-N-(3-(4-phenethyl-4-(pyrrolidin-1-yl)cyclohexyl)propyl)acetamide]	7%
Cc1ccccc1CC1(N(C)C)CCC(NC(=O)COCCN(C)S(=O)(=O)c2ccc(Cl)cc2Cl)CC1 (centres unmarked) [Compound 30, 2-(2-(2,4-dichloro-N-methylphenylsulfonamido)ethoxy)-N-(4-(dimethylamino)-4-(2-methylbenzyl)cyclohexyl)acetamide]	49%
COc1cc(C)c(S(=O)(=O)N2CCCC2COCC(=O)NC2CCC(Cc3ccccc3)(N3CCOCC3)CC2)c(C)c1 (centres unmarked) [Compound 159, N-(4-benzyl-4-morpholinocyclohexyl)-2-((1-(4-methoxy-2,6-dimethylphenylsulfonyl)pyrrolidin-2-yl)methoxy)acetamide]	37%
COc1cc(C)c(S(=O)(=O)N2CCCCC2COCC(=O)N(C)CCCC2CCC(CCc3ccccc3)(N3CCCC3)CC2)c(C)c1 (centres unmarked) [Compound 59, 2-((1-(4-methoxy-2,6-dimethylphenylsulfonyl)piperidin-2-yl)methoxy)-N-methyl-N-(3-(4-phenethyl-4-(pyrrolidin-1-yl)cyclohexyl)propyl)acetamide]	10%
COc1cc(C)c(S(=O)(=O)N(C)CCOCC(=O)N(C)CCC2CCC(Cc3ccccc3)(N3CCCC3)CC2)c(C)c1 (centres unmarked) [Compound 39, N-(2-(4-benzyl-4-(pyrrolidin-1-yl)cyclohexyl)ethyl)-2-(2-(4-methoxy-N,2,6-trimethylphenylsulfonamido)ethoxy)-N-methylacetamide]	32%
